# Data as given in ChEMBL document CHEMBL1128584, “Prediction of drug binding affinities by comparative binding energy analysis” (J Med Chem, 1995).
# Target: T1, Phospholipase A2, membrane associated (Homo sapiens) (UniProt P14555)
# T1 sequence (whole entry): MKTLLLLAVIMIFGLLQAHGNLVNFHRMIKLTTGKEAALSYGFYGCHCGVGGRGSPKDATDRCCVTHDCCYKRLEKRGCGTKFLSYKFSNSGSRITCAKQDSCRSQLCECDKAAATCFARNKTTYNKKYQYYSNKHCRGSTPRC
# Test: Inhibitory activity against human synovial fluid phospholipase A2 (HSF-PLA2)
# Parameters: concentration or dose not given beside the values
# Conditions: concentration not given here
smiles,measurement,value
CCCCCCCCCCS(=O)(=O)NC(CCCCCC)COP(=O)(O)CC (stereo unspecified),inhibition,33%
